Experiment [1] concerns the target T1, P2X7 (Homo sapiens (Human), UniProt Q99572). Put plainly: P2X7 antagonism in human whole blood, IL-1β release (LPS + Bz-ATP, ELISA). Format: cell-based. The note with it: Human Whole Blood IC50 (μM), LPS 30 ng/ml + Bz-ATP 1 mM. (ELISA stands for enzyme-linked immunosorbent assay.)
The target in experiment [2] is T1, P2X7. The experiment can be described thus: Radioligand binding ([3H]A-804598) to membranes of human P2X7-1321N1 cells. The note with it: human P2X7-1321N1 membranes, tracer tritiated A-804598, 1 hour at 4° C. As to the method:
(§1) human or rat P2X7-1321N1 cells were collected and frozen @ −80° C. On the day of the experiment, cell membrane preparations were made according to standard published methods. The total assay volume was 100 μl: 10 μl compound (10×)+(b) 40 μl tracer (2.5×)+50 μl membrane (2×). The tracer used for the assay was tritiated A-804598. The compound can be prepared as described in the literature. (Donnelly-Roberts, D. Neuropharmacology 2008, 56 (1), 223-229.) Compounds, tracer and membranes were incubated for 1 hour @ 4° C. The assay was terminated by filtration (GF/B filters pre-soaked with 0.3% PEI) and washed with washing buffer (Tris-HCl 50 mM). The IC50 generated in the binding assay was corrected for tracer concentration and affinity of the tracer to derive at the affinity (Ki) of the test compounds. The data are presented in Table 2 under the headings: P2X7 human Ki (μM) and P2X7 rat Ki (μM). Data are analyzed and graphed on Graphpad Prism 5.

Sequences of proteins named here, by UniProt entry; tags and fusion partners are left off. A change or cut given only in a name is not applied to a line headed by its entry.
UniProt Q99572: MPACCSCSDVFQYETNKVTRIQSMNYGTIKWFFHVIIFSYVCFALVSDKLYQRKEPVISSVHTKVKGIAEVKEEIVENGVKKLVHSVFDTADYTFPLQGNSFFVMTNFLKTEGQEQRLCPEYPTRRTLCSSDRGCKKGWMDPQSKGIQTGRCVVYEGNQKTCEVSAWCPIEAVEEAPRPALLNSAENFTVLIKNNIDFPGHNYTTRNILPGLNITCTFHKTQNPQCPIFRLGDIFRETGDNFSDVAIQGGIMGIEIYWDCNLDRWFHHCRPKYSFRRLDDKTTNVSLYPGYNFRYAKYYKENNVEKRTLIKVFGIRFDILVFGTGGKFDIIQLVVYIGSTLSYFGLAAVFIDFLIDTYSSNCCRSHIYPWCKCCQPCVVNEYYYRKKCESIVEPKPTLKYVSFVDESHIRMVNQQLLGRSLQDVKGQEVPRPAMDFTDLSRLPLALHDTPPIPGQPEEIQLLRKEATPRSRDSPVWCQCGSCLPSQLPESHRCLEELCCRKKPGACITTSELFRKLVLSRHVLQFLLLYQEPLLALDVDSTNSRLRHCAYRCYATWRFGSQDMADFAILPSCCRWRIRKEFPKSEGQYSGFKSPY
UniProt Q64663: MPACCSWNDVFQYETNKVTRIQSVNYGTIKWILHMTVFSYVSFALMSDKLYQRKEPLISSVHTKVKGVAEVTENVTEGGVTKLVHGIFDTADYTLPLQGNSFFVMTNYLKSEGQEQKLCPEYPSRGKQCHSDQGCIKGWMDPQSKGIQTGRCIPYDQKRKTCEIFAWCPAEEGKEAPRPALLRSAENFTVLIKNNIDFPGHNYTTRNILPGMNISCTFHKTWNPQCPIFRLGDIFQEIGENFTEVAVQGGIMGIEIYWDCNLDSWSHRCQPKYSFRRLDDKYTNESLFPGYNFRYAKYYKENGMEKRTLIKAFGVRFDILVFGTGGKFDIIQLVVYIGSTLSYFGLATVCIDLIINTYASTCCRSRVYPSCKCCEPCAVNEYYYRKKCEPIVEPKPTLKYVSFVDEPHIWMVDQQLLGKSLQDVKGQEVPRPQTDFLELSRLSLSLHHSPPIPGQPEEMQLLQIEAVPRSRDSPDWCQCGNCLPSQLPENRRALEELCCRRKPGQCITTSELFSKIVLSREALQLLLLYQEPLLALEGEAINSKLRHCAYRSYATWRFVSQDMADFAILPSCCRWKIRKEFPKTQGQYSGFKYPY

For another experiment, the target named is rat P2X7 (Rattus norvegicus (Rat), UniProt Q64663). The experiment can be described thus: P2X7 antagonism in recombinant rat P2X7 cells (column headed P2X7 Rat IC50). Format: binding. The method, then:
The in vitro affinity of the compounds of the invention for the rat and human P2X7 receptor was determined using a human peripheral blood mononuclear cells (PBMCs), a human whole blood assay, a Ca^2+ flux and radioligand binding assay in recombinant human P2X7 cells and recombinant rat P2X7 cells. In Tables 2, when the data cell has been left blank, it is intended to mean that the compound was not tested in that assay. The data represented in Tables 2 may represent a value from a single determination or when the experiment was run more than once, the data represents the average from between 2-12 runs.
as §1, with “The IC50 generated in the binding assay was corrected for tracer concentration and affinity of the tracer to derive at the affinity (Ki) of the test compounds. The data are presented in Table 2 under the headings: P2X7 human Ki (μM) and P2X7 rat Ki (μM).” left out

Results on 14 compounds are retold here after patent publication US10150766B2, “P2X7 modulators” (Jansssen Pharmaceutica NV, priority 2014, dated 2018).

Each structure is given as a SMILES string.

In general, IC50 refers to the concentration that inhibits the measured activity by half. By Ki is commonly meant a dissociation constant, usually derived from enzyme kinetics or from competition with a known ligand. The low end stands for a stronger hold on the target, the high end for a looser hold on the target.

Consider `Cc1nc(-c2ccn[nH]2)c2c(n1)[C@@H]1CCC[C@H](C2)N1C(=O)c1cccc(C(F)(F)F)c1Cl` [Example 3, (2-chloro-3-(trifluoromethyl)phenyl)((6R,10S)-2-methyl-4-(1H-pyrazol-5-yl)-5,6,7,8,9,10-hexahydro-6,10-epiminocycloocta[d]pyrimidin-11-yl)methanone], for which the IC50 at P2X7 [1] is 1.11 µM.

For `Cc1nc(-c2ccc(F)cc2)c2c(n1)[C@H]1CCC[C@@H](C2)N1C(=O)c1ccc(Cl)c(F)c1Cl` [Example 54, (2,4-dichloro-3-fluorophenyl)((6S,10R)-4-(4-fluorophenyl)-2-methyl-5,6,7,8,9,10-hexahydro-6,10-epiminocycloocta[d]pyrimidin-11-yl)methanone], the Ki on P2X7 [2] came to 72.4 nM. In addition, the half-inhibitory concentration (IC50) at P2X7 [1] is 0.054 µM.

As to `Cc1nc(-c2ccccn2)c2c(n1)[C@H]1CCC[C@@H](C2)N1C(=O)c1ccnc(C(F)(F)F)c1Cl` [Example 61, (3-chloro-2-(trifluoromethyl)pyridin-4-yl)((6S,10R)-2-methyl-4-(pyridin-2-yl)-5,6,7,8,9,10-hexahydro-6,10-epiminocycloocta[d]pyrimidin-11-yl)methanone], the Ki at P2X7 [2] turned out to be 93.3 nM. Also, the IC50 on P2X7 [1] worked out at 0.179 µM.

With `Cc1nc(-c2ccn[nH]2)c2c(n1)[C@H]1CCC[C@@H](C2)N1C(=O)c1ccc(Cl)c(F)c1Cl` [Example 23, (2,4-dichloro-3-fluorophenyl)((6S,10R)-2-methyl-4-(1H-pyrazol-5-yl)-5,6,7,8,9,10-hexahydro-6,10-epiminocycloocta[d]pyrimidin-11-yl)methanone], the IC50 on rat P2X7 worked out at 484 nM.

Compound `Cc1nc(-c2ccn[nH]2)c2c(n1)[C@H]1CCC[C@@H](C2)N1C(=O)c1cccc(C(F)(F)F)c1F` [Example 26, (2-fluoro-3-(trifluoromethyl)phenyl)((6S,10R)-2-methyl-4-(1H-pyrazol-5-yl)-5,6,7,8,9,10-hexahydro-6,10-epiminocycloocta[d]pyrimidin-11-yl)methanone] had a Ki on P2X7 [2] of 63.1 nM. For the same compound, the half-inhibitory concentration (IC50) on P2X7 [1] came out at 0.03 µM.

With `Cc1nc(-c2ccn[nH]2)c2c(n1)[C@@H]1CCC[C@H](C2)N1C(=O)c1cccc(C(F)(F)F)c1F` [Example 8, (2-fluoro-3-(trifluoromethyl)phenyl)((6R,10S)-2-methyl-4-(1H-pyrazol-5-yl)-5,6,7,8,9,10-hexahydro-6,10-epiminocycloocta[d]pyrimidin-11-yl)methanone], the IC50 on P2X7 [1] amounted to 1.56 µM.

With `Cc1nc(-c2cnn(C)c2)c2c(n1)[C@H]1CCC[C@@H](C2)N1C(=O)c1cccc(C(F)(F)F)c1Cl` [Example 30, (2-chloro-3-(trifluoromethyl)phenyl)((6S,10R)-2-methyl-4-(1-methyl-1H-pyrazol-4-yl)-5,6,7,8,9,10-hexahydro-6,10-epiminocycloocta[d]pyrimidin-11-yl)methanone], the affinity at P2X7 [2], expressed as Ki, was 251 nM. The half-inhibitory concentration (IC50) on P2X7 [1] was found to be 0.485 µM.

Turning to `Cc1nc(-c2ccc(F)cc2)c2c(n1)[C@@H]1CCC[C@H](C2)N1C(=O)c1ccnc(C(F)(F)F)c1Cl` [Example 18, (3-chloro-2-(trifluoromethyl)pyridin-4-yl)((6R,10S)-4-(4-fluorophenyl)-2-methyl-5,6,7,8,9,10-hexahydro-6,10-epiminocycloocta[d]pyrimidin-11-yl)methanone], at P2X7 [1], the half-inhibitory concentration (IC50) worked out at 12.1 µM.

At P2X7 [2], `Cc1nc(-c2cnccn2)c2c(n1)[C@H]1CCC[C@@H](C2)N1C(=O)c1ccnc(C(F)(F)F)c1Cl` [Example 49, (3-chloro-2-(trifluoromethyl)pyridin-4-yl)((6S,10R)-2-methyl-4-(pyrazin-2-yl)-5,6,7,8,9,10-hexahydro-6,10-epiminocycloocta[d]pyrimidin-11-yl)methanone] gave an inhibitory constant (Ki) of 200 nM. The IC50 on P2X7 [1] turned out to be 1 µM.

The compound `Cc1nc(-c2ccn[nH]2)c2c(n1)[C@H]1CCC[C@@H](C2)N1C(=O)c1cccc(C(F)(F)F)c1Cl` [Example 19, (2-chloro-3-(trifluoromethyl)phenyl)((6S,10R)-2-methyl-4-(1H-pyrazol-5-yl)-5,6,7,8,9,10-hexahydro-6,10-epiminocycloocta[d]pyrimidin-11-yl)methanone] came in with a Ki at P2X7 [2] of 33.1 nM. Besides, on P2X7 [1], the IC50 came out at 0.055 µM.

`Cc1nc(-c2ncccn2)c2c(n1)[C@H]1CCC[C@@H](C2)N1C(=O)c1cccc(C(F)(F)F)c1C` [Example 43, (2-methyl-3-(trifluoromethyl)phenyl)((6S,10R)-2-methyl-4-(pyrimidin-2-yl)-5,6,7,8,9,10-hexahydro-6,10-epiminocycloocta[d]pyrimidin-11-yl)methanone]: the affinity on P2X7 [2] corresponds to a Ki of 126 nM. In addition, on P2X7 [1], the IC50 was found to be 0.098 µM.

As for `Cc1nc(-c2ccn[nH]2)c2c(n1)C1CCCC(C2)N1C(=O)c1cccc(C(F)(F)F)c1Cl` (centres unmarked) [Example 2, (2-chloro-3-(trifluoromethyl)phenyl)(2-methyl-4-(1H-pyrazol-5-yl)-5,6,7,8,9,10-hexahydro-6,10-epiminocycloocta[d]pyrimidin-11-yl)methanone], the Ki at P2X7 [2] came to 22.4 nM.

At P2X7 [2], `Cc1nc(-c2cnccn2)c2c(n1)[C@H]1CCC[C@@H](C2)N1C(=O)c1cccc(Cl)c1Cl` [Example 48, (2,3-dichlorophenyl)((6S,10R)-2-methyl-4-(pyrazin-2-yl)-5,6,7,8,9,10-hexahydro-6,10-epiminocycloocta[d]pyrimidin-11-yl)methanone] displayed a Ki of 25.1 nM. The IC50 on P2X7 [1] worked out at 0.015 µM.

With `Cc1nc(-c2ccc(F)cc2)c2c(n1)[C@H]1CCC[C@@H](C2)N1C(=O)c1ccnc(C(F)(F)F)c1Cl` [Example 52, (3-chloro-2-(trifluoromethyl)pyridin-4-yl)((6S,10R)-4-(4-fluorophenyl)-2-methyl-5,6,7,8,9,10-hexahydro-6,10-epiminocycloocta[d]pyrimidin-11-yl)methanone], the Ki at P2X7 [2] worked out at 60.3 nM. In addition, the IC50 on P2X7 [1] was found to be 0.433 µM.
